Measured values published in patent publication US12171806B2, “Therapeutic regimens and methods for lowering blood glucose and/or body weight using GLP-1R and GCGR balanced agonists” (priority 2021, dated 2024).

Assay: Phase 1 MAD study of ALT-801: adverse events (TEAEs), safety overview

CC[C@H](C)[C@H](NC(=O)[C@H](Cc1ccccc1)NC(=O)[C@H](CCC(=O)O)NC(=O)[C@@H]1CCCCNC(=O)CC[C@H](NC(=O)[C@H](CC(=O)O)NC(=O)[C@H](CC(C)C)NC(=O)[C@H](Cc2ccc(O)cc2)NC(=O)[C@H](CCCCN)NC(=O)[C@H](CO)NC(=O)[C@H](Cc2ccc(O)cc2)NC(=O)[C@H](CC(=O)O)NC(=O)[C@H](CO)NC(=O)[C@@H](NC(=O)[C@H](Cc2ccccc2)NC(=O)[C@@H](NC(=O)CNC(=O)[C@H](CCC(N)=O)NC(=O)C(C)(C)NC(=O)[C@@H](N)Cc2c[nH]cn2)[C@@H](C)O)[C@@H](C)O)C(=O)N[C@@H](CCCCNC(=O)[C@H]2O[C@@H](OCCCCCCCCCCCCCCCCCC(=O)O)[C@H](O)[C@@H](O)[C@@H]2O)C(=O)N[C@@H](C)C(=O)N[C@@H](C)C(=O)N1)C(=O)N[C@@H](CCC(N)=O)C(=O)N[C@@H](Cc1c[nH]c2ccccc12)C(=O)N[C@@H](CC(C)C)C(=O)N[C@@H](CC(C)C)C(=O)N[C@@H](CCC(N)=O)C(=O)N[C@H](C(N)=O)[C@@H](C)O [ALT-801, pemvidutide]
ALT elevations (One subject receiving the 1.8 mg dose, with subsequent resolution): *One subject receiving the 1.8 mg dose and one receiving placebo experienced 3-5 times ALT elevations with subsequent resolutions. Most frequently mild at 1.8 mg dose with on-drug resolution and not requiring treatment. No study discontinuations due to adverse events (AEs).
Any TEAE; Mild; % (Overall (N = 27)): (44.4%)
Any TEAE; Mild; n (Overall (N = 27)): 12
Any TEAE; Moderate; % (Overall (N = 27)): (40.7%)
Any TEAE; Moderate; n (Overall (N = 27)): 11
Any TEAE; PLT; % (Overall (N = 27)): (0.0%)
Any TEAE; PLT; n (Overall (N = 27)): 0
Any TEAE; Severe; % (Overall (N = 27)): (0.0%)
Any TEAE; Severe; n (Overall (N = 27)): 0
TEAE Abdominal discomfort; Mild; % (Overall (N = 27)): (7.4%)
TEAE Abdominal discomfort; Mild; n (Overall (N = 27)): 2
TEAE Abdominal discomfort; Moderate; % (Overall (N = 27)): (0.0%)
TEAE Abdominal discomfort; Moderate; n (Overall (N = 27)): 0
TEAE Abdominal discomfort; PLT; % (Overall (N = 27)): (0.0%)
TEAE Abdominal discomfort; PLT; n (Overall (N = 27)): 0
TEAE Abdominal discomfort; Severe; % (Overall (N = 27)): (0.0%)
TEAE Abdominal discomfort; Severe; n (Overall (N = 27)): 0
TEAE Abdominal distension; Mild; % (Overall (N = 27)): (3.7%)
TEAE Abdominal distension; Mild; n (Overall (N = 27)): 1
TEAE Abdominal distension; Moderate; % (Overall (N = 27)): (0.0%)
TEAE Abdominal distension; Moderate; n (Overall (N = 27)): 0
TEAE Abdominal distension; PLT; % (Overall (N = 27)): (0.0%)
TEAE Abdominal distension; PLT; n (Overall (N = 27)): 0
TEAE Abdominal distension; Severe; % (Overall (N = 27)): (0.0%)
TEAE Abdominal distension; Severe; n (Overall (N = 27)): 0
TEAE Abdominal pain; Mild; % (Overall (N = 27)): (18.5%)
TEAE Abdominal pain; Mild; n (Overall (N = 27)): 5
TEAE Abdominal pain; Moderate; % (Overall (N = 27)): (0.0%)
TEAE Abdominal pain; Moderate; n (Overall (N = 27)): 0
TEAE Abdominal pain; PLT; % (Overall (N = 27)): (0.0%)
TEAE Abdominal pain; PLT; n (Overall (N = 27)): 0
TEAE Abdominal pain; Severe; % (Overall (N = 27)): (0.0%)
TEAE Abdominal pain; Severe; n (Overall (N = 27)): 0
TEAE Anaemia; Mild; % (Overall (N = 27)): (3.7%)
TEAE Anaemia; Mild; n (Overall (N = 27)): 1
TEAE Anaemia; Moderate; % (Overall (N = 27)): (0.0%)
TEAE Anaemia; Moderate; n (Overall (N = 27)): 0
TEAE Anaemia; PLT; % (Overall (N = 27)): (0.0%)
TEAE Anaemia; PLT; n (Overall (N = 27)): 0
TEAE Anaemia; Severe; % (Overall (N = 27)): (0.0%)
TEAE Anaemia; Severe; n (Overall (N = 27)): 0
TEAE Application site bruise; Mild; % (Overall (N = 27)): (0.0%)
TEAE Application site bruise; Mild; n (Overall (N = 27)): 0
TEAE Application site bruise; Moderate; % (Overall (N = 27)): (0.0%)
TEAE Application site bruise; Moderate; n (Overall (N = 27)): 0
TEAE Application site bruise; PLT; % (Overall (N = 27)): (0.0%)
TEAE Application site bruise; PLT; n (Overall (N = 27)): 0
TEAE Application site bruise; Severe; % (Overall (N = 27)): (0.0%)
TEAE Application site bruise; Severe; n (Overall (N = 27)): 0
TEAE Application site erythema; Mild; % (Overall (N = 27)): (3.7%)
TEAE Application site erythema; Mild; n (Overall (N = 27)): 1
TEAE Application site erythema; Moderate; % (Overall (N = 27)): (0.0%)
TEAE Application site erythema; Moderate; n (Overall (N = 27)): 0
TEAE Application site erythema; PLT; % (Overall (N = 27)): (0.0%)
TEAE Application site erythema; PLT; n (Overall (N = 27)): 0
TEAE Application site erythema; Severe; % (Overall (N = 27)): (0.0%)
TEAE Application site erythema; Severe; n (Overall (N = 27)): 0
TEAE Blood and lymphatic system disorders; Mild; % (Overall (N = 27)): (3.7%)
TEAE Blood and lymphatic system disorders; Mild; n (Overall (N = 27)): 1
TEAE Blood and lymphatic system disorders; Moderate; % (Overall (N = 27)): (0.0%)
TEAE Blood and lymphatic system disorders; Moderate; n (Overall (N = 27)): 0
TEAE Blood and lymphatic system disorders; PLT; % (Overall (N = 27)): (0.0%)
TEAE Blood and lymphatic system disorders; PLT; n (Overall (N = 27)): 0
TEAE Blood and lymphatic system disorders; Severe; % (Overall (N = 27)): (0.0%)
TEAE Blood and lymphatic system disorders; Severe; n (Overall (N = 27)): 0
TEAE Cardiac disorders; Mild; % (Overall (N = 27)): (7.4%)
TEAE Cardiac disorders; Mild; n (Overall (N = 27)): 2
TEAE Cardiac disorders; Moderate; % (Overall (N = 27)): (0.0%)
TEAE Cardiac disorders; Moderate; n (Overall (N = 27)): 0
TEAE Cardiac disorders; PLT; % (Overall (N = 27)): (0.0%)
TEAE Cardiac disorders; PLT; n (Overall (N = 27)): 0
TEAE Cardiac disorders; Severe; % (Overall (N = 27)): (0.0%)
TEAE Cardiac disorders; Severe; n (Overall (N = 27)): 0
TEAE Constipation; Mild; % (Overall (N = 27)): (11.1%)
TEAE Constipation; Mild; n (Overall (N = 27)): 3
TEAE Constipation; Moderate; % (Overall (N = 27)): (7.4%)
TEAE Constipation; Moderate; n (Overall (N = 27)): 2
TEAE Constipation; Potentially PLT; % (Overall (N = 27)): (0.0%)
TEAE Constipation; Potentially PLT; n (Overall (N = 27)): 0
TEAE Constipation; Severe; % (Overall (N = 27)): (0.0%)
TEAE Constipation; Severe; n (Overall (N = 27)): 0
TEAE Diarrhoea; Mild; % (Overall (N = 27)): (7.4%)
TEAE Diarrhoea; Mild; n (Overall (N = 27)): 2
TEAE Diarrhoea; Moderate; % (Overall (N = 27)): (0.0%)
TEAE Diarrhoea; Moderate; n (Overall (N = 27)): 0
TEAE Diarrhoea; PLT; % (Overall (N = 27)): (0.0%)
TEAE Diarrhoea; PLT; n (Overall (N = 27)): 0
TEAE Diarrhoea; Severe; % (Overall (N = 27)): (0.0%)
TEAE Diarrhoea; Severe; n (Overall (N = 27)): 0
